Usually IC50 stands for the point on the concentration scale where inhibition reaches its midpoint. The low end stands for greater potency in that assay, the high end for weaker potency in that assay.

One molecule from patent US20110319484A1, “NEUROPROTECTIVE COMPOUNDS” (Parque Tecnologico de Ciencias de la Salud, priority 2009, published 2011) can be followed below.

The test has as its target T1, HMG-CoA reductase enzyme (Homo sapiens, UniProt P04035).
T1 construct: the oxidation of the NADPH by the catalytic subunit of the HMG-CoA reductase
T1 sequence (P04035 340-888 limits assumed): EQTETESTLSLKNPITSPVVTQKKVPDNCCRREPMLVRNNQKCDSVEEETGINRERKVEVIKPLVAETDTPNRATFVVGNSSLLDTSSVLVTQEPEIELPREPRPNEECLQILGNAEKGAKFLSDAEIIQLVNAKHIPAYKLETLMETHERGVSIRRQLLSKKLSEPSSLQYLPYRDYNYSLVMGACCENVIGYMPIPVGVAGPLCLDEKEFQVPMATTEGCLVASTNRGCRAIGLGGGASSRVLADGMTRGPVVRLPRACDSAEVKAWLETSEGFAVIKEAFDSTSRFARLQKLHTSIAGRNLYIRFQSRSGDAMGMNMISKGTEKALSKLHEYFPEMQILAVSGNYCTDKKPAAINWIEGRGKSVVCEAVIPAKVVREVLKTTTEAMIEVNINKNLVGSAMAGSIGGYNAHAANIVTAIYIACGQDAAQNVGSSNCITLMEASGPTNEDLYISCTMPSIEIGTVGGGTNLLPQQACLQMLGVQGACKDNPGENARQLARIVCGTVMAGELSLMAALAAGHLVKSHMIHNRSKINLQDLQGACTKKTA
Briefly: HMG-CoA reductase inhibition, spectrophotometric NADPH oxidation at 340 nm. It counts as biochemical. The following applies: four independent assays; Trimmed Spearman-Karber method. From the text:
To that end, the degree of inhibition of the HMG-CoA reductase enzyme by the different (1S,3R,7S,8S,8aR)-1,2,3,7,8,8a-hexahydro-3,7-dimethyl-8-[2-[(2R,4R)-tetrahydro-4-hydroxy-6-oxo-2H-pyran-2-yl]ethyl-1-naphthalenyl propanoate derivatives, optionally mono- or di-methylated at the carbon in the alpha position of propanoic acid (NST0003, NST0004 and NST0005) was studied.
During the reaction, the HMG-CoA reductase uses NADPH as a reducing agent and 3-hydroxy-3-methylglutaryl coenzyme A (HMG-CoA) as a substrate. Mevalonic acid, which serves as a substrate for the following reaction in order to continue with the cholesterol synthesis, is obtained as a reaction product. […]
This in vitro assay is based on the spectrophotometric measurement of the decrease of absorbance at 340 nm, representing the oxidation of the NADPH by the catalytic subunit of the HMG-CoA reductase in the presence of the HMG-CoA reductase substrate. […]
Four independent assays were carried out. […] After brief agitation, the reading of the plate was taken in a spectrophotometer at the conditions of 340 nm, 37° C., detecting the decrease of absorbance at 340 nm over time. The percentage of HMG-CoA reductase enzymatic activity with respect to the control was calculated. The IC50 was calculated with the data obtained by means of the Trimmed Spearman-Karber method (Version 1.5).

`CC(C)c1c(C(=O)Nc2ccccc2)c(-c2ccccc2)c(-c2ccc(F)cc2)n1CC[C@@H](O)C[C@@H](O)CC(=O)O` [atorvastatin, reference compound] gave an IC50 of 161 nM.
